{"sequences": {"note": "By UniProt entry, the sequences of proteins in these tests, tags left out.", "UniProt O43613, whole entry": "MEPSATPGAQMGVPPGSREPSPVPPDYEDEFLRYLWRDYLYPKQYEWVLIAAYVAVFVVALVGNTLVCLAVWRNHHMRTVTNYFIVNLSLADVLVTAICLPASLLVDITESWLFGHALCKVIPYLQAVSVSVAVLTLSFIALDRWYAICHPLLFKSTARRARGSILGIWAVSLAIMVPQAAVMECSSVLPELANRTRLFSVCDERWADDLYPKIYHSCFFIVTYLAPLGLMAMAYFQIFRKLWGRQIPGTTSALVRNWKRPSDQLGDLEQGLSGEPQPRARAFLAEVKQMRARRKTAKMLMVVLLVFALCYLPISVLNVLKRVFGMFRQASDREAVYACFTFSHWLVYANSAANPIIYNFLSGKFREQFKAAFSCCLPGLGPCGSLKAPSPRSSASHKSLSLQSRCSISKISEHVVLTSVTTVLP"}, "source": "paper PMC3927067", "about": "(Journal of Computer-Aided Molecular Design, 2014)", "target": "hOX1R (Homo sapiens, UniProt O43613)", "test": "Orexin 1 receptor binding assay", "conditions": "OX1R Ki, mean of replicates"}
{"smiles": "Cc1ccc(-n2nccn2)c(C(=O)N2CCN(c3nc4cc(Cl)ccc4o3)CC[C@H]2C)c1", "note": "[Compound 7, Suvorexant]", "values": [{"measurement": "Ki", "value": 0.54, "unit": "nM"}]}
